# Data published in PubChem BioAssay AID1458 (National Center for Advancing Translational Sciences (NCATS), 2008).
# The whole screen tested about 210,000 compounds, of which about 5,900 (2.8%) were called active. All entries are inconclusive by the source's own rule. Clear calls are listed elsewhere. Calls follow the shape of the dose curve; as a rule, active = well fitted activation curve with a large enough effect; inconclusive = small, poorly fitted or top-dose-only effect; inactive = no such curve, though single readings can be large or run the other way.
# Assay: qHTS Assay for Enhancers of SMN2 Splice Variant Expression; also: nearly all actives have a fitted effect of over 55% in size
# Conditions: HEK293 SMN2-luciferase splicing reporter, luminescence, 30-36 h
# Potency is read from the fitted curve at half-maximal effect.
row,Structure (SMILES),Potency
1,CCOc1ccc(C2=NCC(CBr)S2)cc1 (stereo unspecified),inconclusive: 6.31 µM
2,CC(C)C(=O)NC(Sc1ccccc1)C(Cl)(Cl)Cl (stereo unspecified),inconclusive: 35.5 µM
3,O=C(NC(Sc1ccncn1)C(Cl)(Cl)Cl)c1ccccc1 (stereo unspecified),inconclusive: 0.0251 µM
4,Cc1ccc2nc3c(c(C)c2c1)CC(C(Cl)Cl)S3 (stereo unspecified),inconclusive: 35.5 µM
5,O=P1(Nc2ccccn2)COc2ccccc2OC1,inconclusive: 0.0224 µM
6,Cc1nn(-c2ccccc2)c2c1P(=O)(N1CCOCC1)N(C)C(c1ccccc1)=N2 (stereo unspecified),inconclusive: 22.4 µM
